System: rats
Details: single dose 100 mg/Kg by oral way in carboxymethylcellulose aqueous suspension 2% w/v; group of 10 rats; observation for 14 days

cimetidine mononitrate salt [Cimetidine.HNO3]
toxic symptom presence: In no one of the group animals the toxic symthom presence was noted
